Data reported in patent publication US20140228293A1, “PARATHYROID HORMONE ANALOGS, COMPOSITIONS AND USES THEREOF” (THE GENERAL HOSPITAL CORPORATION, priority 2011, published 2014).

Experiment: Stability study by HPLC-MS under ambient conditions
Type: physicochemical
Details: room temperature, air, water solution, neutral pH
From the text: High performance liquid chromatography-mass spectroscopy (HPLC-MS) was used to monitor the degradation of four synthetic compounds over a period of time.

hPTH (1-84) [PTH(1-84), reference compound]
degradation after 7 days (estimated based on UV signal): greater than 90%
